Several values for one entry are separate records, joined by “and”; a condition that tells them apart may be missing. Equal values may be shown once. The entries are a selection whose mix differs from that of the whole data set. Inconclusive results are not listed. Activity calls are given as the source filed them. Calls follow the shape of the dose curve; as a rule, active = well fitted cell-killing curve with a large enough effect in the repeat runs; inconclusive = weak or mixed curves, or effect the other way; inactive = flat fitted curve, though single readings scatter.
assay: qHTS assay to identify small molecule antagonists of the retinoid acid receptor (RAR) signaling pathway - cell viability counter screen (AID 1159551); conditions: C3RL4 cells viability, ATP luminescence (CellTiter-Glo), 6 h; at 42.5 µM (top of the series); also: nearly all actives have a fitted effect of over 35% in size
Excerpt: U.S. Tox21 Program National Center for Advancing Translational Sciences [NCATS] NIH Chemical Genomics Center [NCGC] U.S. Environmental Protection Agency [EPA] National Institutes of Environmental Health Sciences [NIEHS] National Toxicology Program [NTP] U.S. Food and Drug Administration [FDA] Tox21 Assay Overview: All-trans Retinoic acid (atRA) is the potent natural metabolite of retinol and plays an important role in normal embryonic development and maintenance of cellular phenotype in adult animals. atRA is the activating ligand for the retinoic acid receptors (RARs) which form heterodimers with retinoid X receptors (RXRs) on the retinoic acid response element (RARE). Through activation of the RAR/RXRs nuclear receptors, atRA regulates the transcription of a large number of protein-coding genes and regulatory RNAs. Intracellular levels of atRA are controlled by the retinol signaling pathway (RSP) that regulates the biosynthesis and catabolism of atRA to maintain physiological levels. Chemicals that interfere with the RSP can cause abnormal intracellular levels of atRA and therefore are potential developmental toxicants. To assess compounds for the potential adverse effect on embryonic development through interfering with retinol signaling, a cell-based RARE luciferase reporter gene assay was used. C3RL4 cell line (OARSA/CFSAN/FDA, Laurel, MD) was used to screen Tox21 10K compound library for identifying inhibitors of the RSP. Also cytotoxicity was assessed by determining the viability of cells based on the quantitation of ATP.
Tox21 Assay Protocol Summary: C3RL4 cells were seeded at 1,000/well in 4 uL of assay medium into white solid 1,536-well tissue culture plates (Greiner Bio-One North America Inc. Monroe, NC) using a Multidrop Combi (Thermo Scientific, Waltham, MA) dispenser. After incubation at 37 C and 5% CO2 for an overnight, 23 nL of compounds dissolved in DMSO, positive control or DMSO only were transferred by a Pintool station (Kalypsys, San Diego, CA). One ul of 1 uM (final concentration) of Retinol was added right after the compound addition by using a Flying Reagent Dispenser (FRD) (Aurora Discovery, San Diego, CA). After 6 hr incubation at 37 C and 5% CO2, 5 uL of CellTiter-Glo reagent (Promega Corporation, Madison, WI) was added to each assay plate using an FRD. Luminescence was quantified on a ViewLux plate reader (PerkinElmer, Waltham, MA) after 30 min incubation at room temperature.
% is scaled to controls: 0 for no effect and ±100 for the full control effect.

Compound | activity change, negative = cytotoxicity
OCCSCCO | inactive: 5.46%

same assay, conditions: C3RL4 cells viability, ATP luminescence (CellTiter-Glo), 6 h; at 92.4 µM (top of the series)

Compound | activity change, negative = cytotoxicity
OCCSCCO | inactive: -0.936%

same assay, conditions: C3RL4 cells viability, ATP luminescence (CellTiter-Glo), 6 h; at 92.4 µM (top of the series) unless noted

Compound | activity change, negative = cytotoxicity
CC(C)OP(C)(=O)OC(C)C | inactive: -1.53% and inactive: 1.25%
CCOP(=O)(CC)OCC | inactive: 0.331%
Nc1cc([N+](=O)[O-])cc([N+](=O)[O-])c1O | inactive: -6.35%
O=[N+]([O-])OCC(CO[N+](=O)[O-])(CO[N+](=O)[O-])CO[N+](=O)[O-] | inactive: 0.575%
O=[N+]([O-])[O-].[NH4+] | inactive: -0.337% and inactive: 1.97%
Cc1ccc([N+](=O)[O-])c([N+](=O)[O-])c1 | inactive: 0.61%
CCOP(=O)(CC)Oc1ccc([N+](=O)[O-])cc1 (configuration not stated) | inactive: 0.0953% [at 42.5 µM]
CP(=O)(O)OCCC[Si](O)(O)O | inactive: 0.396%
COc1ccc([N+](=O)[O-])cc1[N+](=O)[O-] | inactive: 3.96%
N#CBr | inactive: 0.78%
CN(C)CCCl | inactive: 2.82%
Cc1c([N+](=O)[O-])cccc1[N+](=O)[O-] | inactive: 5.73% and inactive: 1.42%
COP(C)(=O)OC | inactive: 2.81% and inactive: 0.898%
N=C(N)N[N+](=O)[O-] | inactive: 0.837%
Cc1cccc([N+](=O)[O-])c1[N+](=O)[O-] | inactive: -3.04% [at 42.5 µM]
O=[N+]([O-])c1cccc([N+](=O)[O-])c1 | inactive: 4.38%
CCN(CC)CCCl | inactive: 0.559%
[NH4+].[O-][Cl+3]([O-])([O-])[O-] | inactive: 1.73% and inactive: 2.59%
CC(C)N(CCO)C(C)C | inactive: -1.37%
Cc1ccc([N+](=O)[O-])cc1[N+](=O)[O-] | inactive: -1.2% and inactive: 3.42%

Source: PubChem BioAssay (Tox21)
